# According to patent US10183009B2, “Therapeutic compounds and uses thereof” (GENENTECH, INC., priority 2014, dated 2019):
# Sequences of proteins named here, by UniProt entry; tags and fusion partners are left off. Residues count along the entry.
# UniProt P21675, 1525-1656 limits assumed: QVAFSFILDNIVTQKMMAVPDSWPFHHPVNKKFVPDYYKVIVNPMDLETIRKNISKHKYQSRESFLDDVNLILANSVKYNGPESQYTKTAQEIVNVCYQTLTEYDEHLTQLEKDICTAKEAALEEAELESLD
# Experiments:
# [1] = biological target: BRD4(BD1) (Homo sapiens (Human), UniProt O60885); experiment: BRD4 AlphaLisa Binding Assay
# [2] = biological target: TAF1-BD2 (Homo sapiens (Human), UniProt P21675); experiment: TAF1-BD2 TR-FRET Binding Assay; settings: Assay: TAF-1
SMILES,IC50 [1] [nM],IC50 [2] [nM]
"CCCCn1cc(-c2cccc(C(=O)N(C)C)c2)c2cc[nH]c2c1=O [Example 2, 3-(6-butyl-7-oxo-1H-pyrrolo[2,3-c]pyridin-4-yl)-N,N-dimethyl-benzamide]",2600,–
"COCCn1cc(-c2cccc(C(=O)N(C)C)c2)c2cc[nH]c2c1=O [Example 14, 3-[6-(2-methoxyethyl)-7-oxo-1H-pyrrolo[2,3-c]pyridin-4-yl]-N,N-dimethyl-benzamide]",–,2000
